The results in this text go back to patent US11608319B2, “Beta-amino acid derivative, kinase inhibitor and pharmaceutical composition containing the same, and method for performing an in vivo related application that benefits from the inhibition of a kinase” (Industrial Technology Research Institute, priority 2019, dated 2023).

Structures are written as SMILES. Where a name gives a salt, the structure may show the parent alone.

Data set [1] relates to rabbit eyes with high intraocular pressure induced by magnetic beads. Kind of data set: Model of magnetic bead induced high intraocular pressure rabbit (intraocular pressure >30 mmHg). Type of data set: in vivo, New Zealand white rabbit. From the text: Evaluation of the effect of reducing intraocular pressure in model of magnetic bead induced high intraocular pressure rabbit (high intraocular pressure model with intraocular pressure >30 mmHg)
Experimental animal: New Zealand white rabbit, male, body weight 2.0-3.0 kg. New Zealand white rabbits were purchased from Huijun Farm (Changhua, Taiwan) before the experiment and were raised in the Animal Center of National Chiao Tung University.
Experimental method: After weighing and grouping male New Zealand white rabbits, the New Zealand white rabbits were anesthetized with Zoletil 50 0.2 mL/kg. 50 μL of magnetic bead solution (50 mg/mL, magnetic bead size of 10 μm) was injected into the left and right anterior eye chambers of the rabbit under anesthesia to make rabbit eyes become a state of high intraocular pressure. After the injection to the anterior chamber of the eye, a strong […] iron magnet ring was immediately put around the eye for 10-20 minutes to make the magnetic beads completely block the drainage tissue of the aqueous humor. After disinfecting the eyeball with antibiotics, moisturizing eye ointment was provided to restore the eyeball, and the intraocular pressure rising was waited. […] The experiment was conducted for 2 consecutive days.

The next data set has as its system rabbit eyes. Nature of the data set: Safety margin assay (eye irritation, OECD/OCDE 405). The following applies: in vivo.

In the case of `NCC(C(=O)Nc1ccc(-c2cn[nH]c2)cc1)c1ccccc1` (racemic) [Compound 7, N-(4-(1H-pyrazol-4-yl)phenyl)-3-amino-2-phenylpropanamide dihydrochloride], the “effectiveness relative to eye drops containing 0.02% AR-13324” value in data set [1] (eye drop containing 1% Compound 7) is given as “more than 3 times”. Moreover, the “Safety margin: Therapeutic index (TI)” value with rabbit eyes stood at 3.

Turning to `NC[C@@H](C(=O)Nc1ccc(-c2cn[nH]c2)cc1)c1ccccc1` [Compound 20, (S)—N-(4-(1H-pyrazol-4-yl)phenyl)-3-amino-2-phenylpropanamide dihydrochloride], in data set [1] (eye drop containing 0.1% Compound 20), the “effectiveness relative to eye drops containing 0.02% AR-13324” value is given as “more than twice as effective”.
